Values of other authors in publication PMC11544004.

Sequences of proteins named here, by UniProt entry; tags and fusion partners are left off. Residues count along the entry.
UniProt P42081, 24-247: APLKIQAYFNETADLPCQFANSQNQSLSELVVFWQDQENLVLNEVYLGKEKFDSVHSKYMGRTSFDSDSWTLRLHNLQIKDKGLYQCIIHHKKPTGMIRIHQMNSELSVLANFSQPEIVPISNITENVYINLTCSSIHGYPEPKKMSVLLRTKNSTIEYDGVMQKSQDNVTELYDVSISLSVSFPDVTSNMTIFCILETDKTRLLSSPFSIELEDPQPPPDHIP

Columns and labels:
CD86 (Homo sapiens) = CD86 (Homo sapiens) (UniProt P42081)
CD80 (Homo sapiens) = CD80 (Homo sapiens) (UniProt P33681)

## CTLA-4 (from UniProt P16410)
CD86 (Homo sapiens)
  Kd: 2000 nM
CD80 (Homo sapiens)
  Kd: 460 nM
